Test results as given in patent US20220127258A1, “AROMATIC RING OR HETEROAROMATIC RING COMPOUNDS, PREPARATION METHOD THEREFOR AND MEDICAL USE THEREOF” (The National Institutes of Pharmaceutical R&D Co., Ltd., priority 2019, published 2022).

Target: T1, FXR (Homo sapiens, UniProt Q96RI1)
T1 sequence (Q96RI1 262-486 limits assumed): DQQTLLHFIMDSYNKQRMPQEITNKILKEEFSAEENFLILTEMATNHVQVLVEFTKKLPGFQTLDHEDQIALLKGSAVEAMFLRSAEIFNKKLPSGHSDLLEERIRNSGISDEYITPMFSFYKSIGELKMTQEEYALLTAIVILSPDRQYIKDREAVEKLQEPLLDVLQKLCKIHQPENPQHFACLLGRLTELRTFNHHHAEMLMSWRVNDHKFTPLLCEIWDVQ
Assay: FXR agonistic activity, luciferase assay
Type: cell-based
Conditions: luc2P-GAL4-HEK293 cells transfected with pBIND-FXR, 24 hours
Method: The FXR agonistic activity of the compound of the present invention was evaluated using the luciferase assay.
The experimental process comprises the follows. The luc2P-GAL4-HEK293 stably transfected cell line (the cell line was established by transfecting pGL4.35 plasmid with HEK293 cells which was then subjected to Hygromycin B screening. The cell contained 9×GAL4 UAS and firefly luciferase reporter gene. The ligand-activated LBD-GAL4 DBD fusion protein can enter the nucleus to bind to 9×GAL4 UAS and activate the transcription of the downstream luciferase reporter gene) was transferred to a 96-well plate with […] per well. pBIND-FXR (Which was constructed by inserting FXR-LBD into pFN26A-BIND hRluc-neo Flexi® vector. The plasmid was 7.5 kb in size, Amp resistant, contained FXR-LBD, and can express FXR-LBD and GAL4 DBD fusion proteins) was transfected using X-tremeGENE HP transfection reagent. The ratio of plasmid to transfection reagent was 1 μg: 2 μl. […] All the liquid in the plate was transferred to a 96-well microtiter plate, and the firefly luciferin value was measured with a multi-function plate reader (manufacturer: Bio Tek (USA); model: Synergy4). […] The plate was incubated at room temperature for 10 minutes, and the renilla luciferin value was measured. The measurement order of renilla fluorescence should be the same as that of firefly fluorescence. […]

## 2-chloro-4-(5-((1R,3r,5S)-3-((5-cyclopropyl-3-(2,6-dichlorophenyl)isoxazol-4-yl)methoxy)-8-azabicyclo[3.2.1]octan-8-yl)-1,3,4-oxadiazol-2-yl)benzoic acid [Example 9]
  EC50: 50 to 100 nM
